The experiment has as its target 5-hydroxytryptamine receptor 2C (Homo sapiens, UniProt P28335).

Amino acid sequences for entries named in this document (tags omitted). A change or cut given only in a name is not applied to a line headed by its entry.
UniProt P28335: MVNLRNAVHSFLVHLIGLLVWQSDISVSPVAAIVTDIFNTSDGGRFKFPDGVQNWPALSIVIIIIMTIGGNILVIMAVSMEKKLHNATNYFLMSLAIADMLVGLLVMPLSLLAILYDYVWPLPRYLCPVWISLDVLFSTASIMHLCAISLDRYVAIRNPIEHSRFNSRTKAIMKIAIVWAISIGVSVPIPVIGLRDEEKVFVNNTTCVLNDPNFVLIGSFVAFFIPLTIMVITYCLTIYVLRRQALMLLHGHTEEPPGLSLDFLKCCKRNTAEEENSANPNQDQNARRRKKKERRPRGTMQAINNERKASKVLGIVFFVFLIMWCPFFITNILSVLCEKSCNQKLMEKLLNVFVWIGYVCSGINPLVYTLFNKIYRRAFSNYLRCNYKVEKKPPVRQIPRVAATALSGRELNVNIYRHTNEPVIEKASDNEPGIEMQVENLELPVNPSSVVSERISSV

This note sets out measurements from BindingDB's records for doi:10.1016/0006-3223(89)90217-5 (Stanford University, 1989).

The term Ki denotes a dissociation constant, usually derived from enzyme kinetics or from competition with a known ligand. Read a low Ki as higher affinity.

For `Clc1cccc(N2CCNCC2)c1` [mCPP], the inhibition constant (Ki) came to 360 nM.
